# From PubChem BioAssay AID463193 (University of Pittsburgh Molecular Library Screening Center, 2010)
# The list shows a part of the results, in another mix than the full data. Activity calls are given as the source filed them.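 Rule for the calls: active = percentage of spot-positive cells more than 3 SD above its plate mean, without a fluorescence outlier flag or 80% toxicity; inconclusive = no clear call, values can overlap the other calls; inactive = the rest.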
# Assay: autophagy modulators in MEF cells, primary screen, imaging, high-content, MEF GFP-LC3 (AID 463193);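 note: spot-positive cell cutoff set from DMSO-treated cells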
# Details: MEF GFP-LC3 puncta imaging, at 10 µM, active compounds read high
row,Compound,% cells with GFP-LC3 spots
1,COc1ccc(NC2CCN(CCc3ccccc3)CC2)c(OC)c1,inactive: 5.18%
2,COc1ccc(C(=O)NCC2(N3CCCCC3)CCCCC2)c(OC)c1OC,inactive: 2.75%
3,O=C(NCC1(N2CCOCC2)CCCCC1)c1cc2ccccc2o1,inactive: 11.1%
4,CCOC(=O)N1CCC(Nc2ccc(OC)cc2)CC1,inactive: 4.48%
5,O=C(OC1CN2CCC1CC2)C1c2ccccc2Oc2ccccc21 (stereo not given),inactive: 31.1%
6,CN(C)c1cccc(C(=O)NCC2(N3CCCCC3)CCCCC2)c1,inactive: 1.51%
7,COc1ccc(CN(CCCl)CCCl)cc1Cl,inactive: 1.95%
8,CC(C)c1ccc(NC2CCN(C(=O)OC(C)(C)C)CC2)cc1,inactive: 8.23%
9,CN1CCC(Nc2cccc(F)c2)CC1,inactive: 2.15%
10,O=C(NCC1(N2CCCCC2)CCCCC1)c1cccc([N+](=O)[O-])c1,inactive: 9.51%
11,N#CC1(Nc2ccccc2)CCN(CCc2ccccc2)CC1,inactive: 0.593%
12,CN1CCN(CCOC(=O)C(O)(c2ccccc2)c2ccccc2)CC1,inactive: 2.67%
13,COc1ccc(NC2CCN(C(=O)OC(C)(C)C)CC2)cc1,inactive: 1.71%
14,O=C(NCC1(N2CCOCC2)CCCCC1)c1cc(=O)[nH]c2ccccc12,inactive: 6.1%
15,N#Cc1ccc(C(=O)NCC2(N3CCCCC3)CCCCC2)cc1,inactive: 0.573%
16,c1ccc(CN2CCC(Nc3ccccc3)CC2)cc1,inactive: 9.35%
17,COc1ccc(C(=O)NCC2(N3CCOCC3)CCCCC2)cc1OC,inactive: 0.138%
18,N/C(=N\O)c1c(N)no[n+]1[O-],inactive: 8.3%
19,O=C(OC1CN2CCC1CC2)C1c2ccccc2C=Cc2ccccc21 (stereo not given),inactive: 17.8%
20,CCOc1ncccc1C(=O)NCC1(N2CCOCC2)CCCCC1,inactive: 4.83%
21,CC(C)(C)OC(=O)N1CCC(Nc2ccccc2)CC1,inactive: 0.141%
22,CCC(CO)(C(=O)OC1CN2CCC1CC2)c1ccccc1 (stereo not given),inactive: 6.51%
23,COc1cc(OC)cc(C(=O)NCC2(N3CCOCC3)CCCCC2)c1,inactive: 10.8%
24,CCN1CCC(Nc2cccc(F)c2)CC1,inactive: 9.12%
25,CN(C)c1ccc(C(=O)NCC2(N3CCCCC3)CCCCC2)cc1,inactive: 0.282%
